Experimental data published in US7655810B2, “Phosphine transition metal complex, method for producing the same, and antitumor agent containing the same” (Nippon Chemical Industrial Co., Ltd., priority 2005, dated 2010).

Tested on: female Sprauge-Dawley SPF rats
Assay: Toxicity test by single oral administration to rats
Type: in vivo, rat
Conditions: single oral dose in corn oil, female SD rats, observed until the 14th day
Protocol: After female Sprauge-Dawley SPF rats (CrJ: CD (SD)) were quarantined and acclimated for about a week, healthy 8-week-old rats were selected in groups of five rats. The rats was fasted overnight before administration, and single oral doses of 20, 50, 100, and 300 mg/kg of the phosphine gold complex, and 10, 20, 50, and 100 mg/kg of cisplatin dissolved in corn oil were administrated the respective rats. The rats were observed 10 and 30 minutes and 1, 2, and 4 hours after administration, and further observed daily until the 14th day.

## Bis(1,2-bis((2R,5R)-2,5-(dimethylphosphorano)benzene))gold (I) Chloride [Example 4]
  LD50 (50% lethal dose): >300 mg/kg
